Experimental data as given in patent US20110150914A1, “COMPOSITIONS AND METHODS FOR DENGUE VIRUS (DV) TREATMENT AND VACCINATION” (priority 2008, published 2011).

Molecular target: H-2 D^b (mouse; human), P61769

SSVNVSLT (modifications not checked) [NS4B59-66]
IC50: 1.45 µM
